In paper PMC10706821, “Folate-Appended Hydroxypropyl-β-Cyclodextrin Induces Autophagic Cell Death in Acute Myeloid Leukemia Cells” (International Journal of Molecular Sciences, 2023):

Assays:
[1] = peripheral blood cell count after intraperitoneal administration; settings: HP-β-CyD 10,000 mg/kg i.p., seven repeat injections, Day 8
[2] = test system: AML cell lines; experiment: modified MTT assay, statements over all AML cell lines; assay type: cell-based, human; settings: 72 h
Protocol: The trypan blue dye exclusion method was used to evaluate cell viability. Cells (HL-60, THP1, SKM1 and Kasumi1 cells) were seeded in flat-bottomed 96-well plates at a density of 1 × 10^4 cells in 100 µL medium per well and incubated with FA-HP-β-CyD (0, 0,1, 0.25, 0.5, 0.75, 1 mM) or HP-β-CyD (0, 1, 2.5, 5, 10 mM) for 72 h. Then, viable cells were counted. Cell proliferation was evaluated by a modified MTT assay using Cell Counting Kit-8 (Dojindo Molecular Technologies, Kumamoto, Japan), as previously described. AML cells were cultured in 96-well plates at a density of 1 × 10^4 cells in 100 µL medium per well and incubated with FA-HP-β-CyD or HP-β-CyD for 72 h. The half-maximal inhibitory concentration values (IC50) were determined by non-linear regression using CalcuSyn software version 1.1.1 (Biosoft, Cambridge, UK), as previously described. After obtaining IC50 values for each agent, the antileukemic activity of FA-HP-β-CyD plus cytosine arabinoside (Ara-C) or Venetoclax was evaluated, as previously described. Five concentrations (0.25-, 0.5-, 0.75-, 1.0-, and 1.5-fold the IC50) of FA-HP-β-CyD plus Ara-C or Venetoclax were used to treat AML cells. […] This method is capable of quantifying synergistic (CI < 1) and antagonistic (CI > 1) effects at different dose and effect levels.

| Compound | Hb [1] | IC50 fold lower than those of HP-β-CyD [2] |
| --- | --- | --- |
| CC(O)COC[C@H]1O[C@@H]2O[C@H]3[C@H](O)[C@@H](O)[C@@H](O[C@H]4[C@H](O)[C@@H](O)[C@@H](O[C@H]5[C@H](O)[C@@H](O)[C@@H](O[C@H]6[C@H](O)[C@@H](O)[C@@H](O[C@H]7[C@H](O)[C@@H](O)[C@@H](O[C@H]8[C@H](O)[C@@H](O)[C@@H](O[C@H]1[C@H](O)[C@H]2O)O[C@@H]8COCC(C)O)O[C@@H]7COCC(C)O)O[C@@H]6COCC(C)O)O[C@@H]5COCC(C)O)O[C@@H]4COCC(C)O)O[C@@H]3COCC(C)O (stereo partly drawn) [HP-β-CyD, 2-Hydroxypropyl-β-cyclodextrin] | 14.5 ± 0.78 g/dL | – |
| folate-conjugated HP-β-CyD [FA-HP-β-CyD] | – | at least 8 fold |
